Consider 1 molecule from US4668677A, “4-phenylphthalazine derivatives, their preparation and their use as pharmaceuticals” (Mitsubishi Chemical Industries Limited, priority 1984, dated 1987).

This data set is described as follows: in vivo. As to conditions: rat, po, rats.

By LD50 is commonly meant the dose at which mortality reaches 50%. Read a high LD50 as lower toxicity. In turn, `CCCNc1nnc(-c2ccccc2)c2ccccc12` [compound 1] showed an LD50 of 522 mg/kg.
